Compound activity as filed in PubChem.
Sampled rows, rich in hits. Any-hit rate of the full collection: about 2.8%.
Yeast UUG start: modulators of yeast start codon fidelity, primary screen, whole organism, S. cerevisiae, single point, plate reader; activity score, % at 18.7 µM; actives 0.13% (n = 350,000); S. cerevisiae UUG-firefly luciferase reporter, luminescence/redox ratio;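 active = replicate mean at a twofold rise or more, about +100% in these data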;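 also: firefly luciferase made from a UUG start codon reports start codon fidelity; reporter light over untreated wells divided by growth signal over untreated wells; some hits fall short of that in this replicate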
PGC1a acetyl inh: inhibitors of PGC1a acetylation signal, primary screen, cell-based, U2OS, AlphaScreen, inhibitor mode. AlphaScreen anti-acetyl-lysine; with virally co-expressed GCN5 acetyltransferase. inhibition, % at 15.6 µM. 350,000 tested, 0.17% active. AID 651687, 2012;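 active = every replicate shows inhibition of at least 40%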;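 also: 0% = neutral control wells and 100% = positive control wells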
Statin myotox sup: suppressors of statin myotoxicity in C2C12 myotubes, primary screen, cell-based, single point, plate reader | C2C12 myotubes + simvastatin, ATP luminescence, 48 h; scaled: DMSO 0, geranylgeraniol control 100 | rescue of ATP level, % at 7.49 µM | 330,000 tested, 0.78% active | AID 602340, 2012;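 active = mean ATP rescue above about 67%, or every replicate alone reaching that limit, limit read from the data, passing the limit was not always enough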;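 also: myotubes were challenged with 10 µM simvastatin during compound exposure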
PglD inh: C. jejuni PglD acetyltransferase inhibitors, primary screen, biochemical, DTNB colorimetric, single point. UDP-N-acetylbacillosamine N-acetyltransferase PglD (Campylobacter jejuni). purified PglD enzyme, DTNB colorimetric CoA detection. inhibition, % at 12.5 µM. 360,000 tested, 0.098% active; in the data active = inhibition above about 16%, passing the limit was not always enough
E-sel inducer: E-selectin induction in HUVECs, primary screen, imaging, HUVEC, immunofluorescence imaging, single point. P16581. normalized: neutral wells 0, TNF-alpha wells 100. activation, % at 7.58 µM. 260,000 tested, 0.37% active;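 active = mean E-selectin-positive cell signal at least 10% of the positive control, reached in at least 60% of replicates, without over 20% cell loss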
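Test system – human umbilical vein endothelial cells (HUVEC), E-selectin induction · Input – 3,000 HUVEC seeded per well · Buffer or medium – EGM-2, gelatin · Compound dosing – single-point compound dose · Detection – immunofluorescence imaging · Measure – percent E-selectin-positive cells · Controls – TNF-alpha high, DMSO low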
esBAF inh: Bmi1 luciferase reporter increase in mESCs, primary screen, esBAF inhibitor project, mouse ES cells, Bmi1 luciferase knock-in, single point; 350,000 tested, 2% active; AID 602393, 2012; reporter increase, % at 12.5 µM; 24 h; 100% = twice the neutral-well signal; in the data active = activation above about 40%;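 also: 0% = median of the plate's neutral control wells and 100% = double that signal; a rise in the Bmi1 reporter signal indicates esBAF inhibition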
Numbers without * were called inactive; / = no result.

SMILES	Yeast UUG start	PGC1a acetyl inh	Statin myotox sup	PglD inh	E-sel inducer	esBAF inh
CN(C)c1ccc(N=Cc2nc(-c3ccccc3)oc2O)cc1	/	-6	/	/	/	/
CSc1ccccc1N=Cc1nc(-c2ccccc2)oc1O	-17	-9	26	7	/	52*
CCCNC(=O)[C@H]1[C@H](CO)[C@H]2Cn3c(ccc(C4=CCCCC4)c3=O)[C@@H]1N2	/	7	-2	-1	1	6
CCCCCCC(=O)c1c(C)[nH]c(C(=O)OCC)c1C	18	3	5	7	/	55*
CC(=O)c1c(C)[nH]c(C(=O)OCc2cccc(C)c2)c1C	-8	/	-41	4	0	54*
CCCCC(=O)OCC(=O)c1[nH]c(C)c(C(=O)OCC)c1C	-15	6	7	0	/	0
CCOC(=O)c1c(C)[nH]c(N=Nc2ccccc2C)c1C	-14	-11	-17	2	/	48*
O=C(COC(=O)C1CC2C=CC1C2)NCc1ccco1 (stereo not drawn)	-5	-5	101*	4	/	-5
COc1ccc(C)cc1COC(=O)c1[nH]c(C)c(C(C)=O)c1C	-8	-11	-10	1	/	10
COc1cccc(S(=O)(=O)N[C@H]2CC[C@@H](CC(=O)NC3CCC3)O[C@@H]2CO)c1	-13	16	19	-3	0	1
COc1ccc([C@@H]2C=C(C(=O)N3CCCCC3)O[C@H](OCc3ccc(CO)cc3)C2)cc1	9	-9	/	-2	/	/
O=C(NC1CCC1)[C@@H]1[C@@H](CO)[C@@H]2Cn3c(ccc(C4=CCCC4)c3=O)[C@H]1N2CC1CC1	-19	/	14	2	-1	-1
CN(C)CC(=O)N1[C@H](C(=O)NC2CCCC2)[C@@H](CO)[C@@H]2Cn3c(ccc(-c4ccc(F)cc4)c3=O)[C@@H]21	/	/	28	0	0	-2
CCOC(=O)c1c(C)[nH]c(C(=O)OCC(=O)NCc2ccco2)c1C	-7	-5	-1	2	0	49*
CCOC(=O)c1c(C)[nH]c(C(=O)OCc2ccc(C)cc2)c1C	-4	-2	/	3	0	/
CCOC(=O)c1c(C)[nH]c(C(=O)OCc2ccccc2)c1C	4	3	7	2	0	76*
CCOC(=O)c1c(C)[nH]c2c1cc(O)c1ccccc12	-23	-9	7	1	/	62*
C=CCOC(=O)c1oc(COC[C@@H](NC(=O)N(C)Cc2ccccc2)c2ccccc2)c(C(=O)OC)c1C(=O)OC	/	-13	/	/	/	/
O=C(N[C@H]1CC[C@H](CCNS(=O)(=O)c2cccc(Cl)c2)O[C@@H]1CO)c1ccncc1	-11	-5	-11	0	0	3
COCCCNC(=S)Nc1cc(C)c(C)cc1C	/	75*	7	/	/	-1
CCC(=O)N1CCCCN2[C@H](CO)[C@H](c3ccc(C#Cc4ccccc4)cc3)[C@@H]2C1	-12	0	/	1	0	/
O=C(C[C@@H]1CC[C@H]2[C@@H](COC[C@H](O)CN2Cc2ccc(Cl)cc2)O1)NCc1cccc(F)c1	/	-1	26	3	0	-6
N#Cc1cc2cc3c(cc2nc1N1CCCCC1)OCCO3	-9	5	13	1	/	70*
O=S(=O)(N[C@@H]1CC[C@H](CCn2cc(-c3ccccc3F)nn2)O[C@H]1CO)c1ccc(Cl)cc1	-3	-11	12	2	0	8
Cc1nc(-c2ccc(Cl)cc2)sc1C1(C)CC(c2cccc(F)c2)=NO1 (stereo not drawn)	-13	/	12	1	0	46*
C=CCN(C(=O)C1CC(=O)N(C2CCCC2)C1)c1nc(-c2ccc(S(C)(=O)=O)cc2)cs1 (stereo not drawn)	19	/	-21	0	/	54*
C=CCN(C(=O)CN1CCCCC1)c1nc(-c2ccccc2)cs1	-7	9	-24	1	0	30
Cc1noc(C)c1NC(=O)Nc1ccc2c(c1)C(=O)N([C@@H](C)CO)C[C@H](C)[C@H](CN(C)C(=O)Nc1cccc3ccccc13)O2	-38	4	46	2	0	3
CCOC(=O)c1nn(-c2ccc(Br)cc2)cc1C(=O)c1cccc2ccccc12	-20	-6	4	0	/	78*
OCCN1CCN(c2cc(-c3ccc4ccccc4c3)nc3ccnn23)CC1	-19	6	0	2	0	8
Cc1cccc(-c2cc(N3CCCN(C)CC3)n3nccc3n2)c1	-10	1	2	-1	69*	-5
CN1CCCN(c2cc(-c3ccc4ccccc4c3)nc3ccnn23)CC1	11	/	-1	2	150*	2
CCOc1cccc(-c2cc(N3CCN(CCO)CC3)n3nccc3n2)c1	-14	-6	4	0	2	-10
CO[C@@H]1CN(C)C(=O)c2ccc(NC(C)=O)cc2OC[C@H](C)N(Cc2cncnc2)C[C@H]1C	/	-10	2	2	0	1
COc1cccc(S(=O)(=O)Nc2ccc3c(c2)[C@H]2C[C@H](CC(=O)NCc4ccccc4F)O[C@H](CO)[C@H]2O3)c1	/	-14	-2	1	0	10
C[C@@]12C(=O)OC(=O)[C@]1(C)C1CCC2O1	-5	47*	-3	4	-1	-25
CC12C(=O)N(c3nccs3)C(=O)C1(C)C1CCC2O1 (stereo not drawn)	4	3	3	-2	0	-2
CC(=O)Nc1ccc(Nc2nc(-c3cc4ccccc4oc3=O)cs2)cc1	-9	5	-2	-5	/	90*
O=C(O)c1ccc(Nc2nc(-c3cc4ccccc4oc3=O)cs2)cc1O	/	-13	/	/	/	/
CC(=O)Nc1ccc(NC(=O)c2cccc(-c3cc4ccccc4oc3=O)c2)cc1	-19	-3	-4	0	4	66*

Entries of single compounds as entered above. Order of values: Yeast UUG start | PGC1a acetyl inh | Statin myotox sup | PglD inh | E-sel inducer | esBAF inh
Cc1cccc(-c2cc(N3CCCN(C)CC3)n3nccc3n2)c1 reads -10 | 1 | 2 | -1 | 69* | -5
CCC(=O)N1CCCCN2[C@H](CO)[C@H](c3ccc(C#Cc4ccccc4)cc3)[C@@H]2C1 reads -12 | 0 | / | 1 | 0 | /
CCOc1cccc(-c2cc(N3CCN(CCO)CC3)n3nccc3n2)c1 reads -14 | -6 | 4 | 0 | 2 | -10
Cc1noc(C)c1NC(=O)Nc1ccc2c(c1)C(=O)N([C@@H](C)CO)C[C@H](C)[C@H](CN(C)C(=O)Nc1cccc3ccccc13)O2 reads -38 | 4 | 46 | 2 | 0 | 3
C=CCN(C(=O)C1CC(=O)N(C2CCCC2)C1)c1nc(-c2ccc(S(C)(=O)=O)cc2)cs1 (stereo not drawn) reads 19 | / | -21 | 0 | / | 54*

Continued.
SMILES	Yeast UUG start	PGC1a acetyl inh	Statin myotox sup	PglD inh	E-sel inducer	esBAF inh
Nc1ccc(Nc2nc(-c3cc4ccccc4oc3=O)cs2)cc1	-5	8	22	-9	0	81*
COc1ccc(S(=O)(=O)N(C)C[C@H]2Oc3ccc(NS(=O)(=O)c4c(C)noc4C)cc3CC(=O)N([C@H](C)CO)C[C@@H]2C)cc1	6	1	8	6	0	-2
N=C1N(/N=C/c2ccccc2)C(=Nc2ccccc2)C(=S)N1c1ccccc1	-21	-2	1	-7	/	60*
CCNc1nc(NCC)nc(Nn2cnnc2)n1	-5	6	99*	-5	/	-7
CNC(=S)N/N=C/c1ccc(N(C)C)cc1	/	/	/	/	8	/
CNC(=S)N/N=C/c1ccc(C(C)C)cc1	-7	3	-8	4	/	59*
